Inhibition data for 25 molecules are collected here from PubChem BioAssay AID743445 (Broad Institute, 2014).

The chains behind the UniProt entries cited, without tags or fusion partners.
UniProt O96028, whole entry: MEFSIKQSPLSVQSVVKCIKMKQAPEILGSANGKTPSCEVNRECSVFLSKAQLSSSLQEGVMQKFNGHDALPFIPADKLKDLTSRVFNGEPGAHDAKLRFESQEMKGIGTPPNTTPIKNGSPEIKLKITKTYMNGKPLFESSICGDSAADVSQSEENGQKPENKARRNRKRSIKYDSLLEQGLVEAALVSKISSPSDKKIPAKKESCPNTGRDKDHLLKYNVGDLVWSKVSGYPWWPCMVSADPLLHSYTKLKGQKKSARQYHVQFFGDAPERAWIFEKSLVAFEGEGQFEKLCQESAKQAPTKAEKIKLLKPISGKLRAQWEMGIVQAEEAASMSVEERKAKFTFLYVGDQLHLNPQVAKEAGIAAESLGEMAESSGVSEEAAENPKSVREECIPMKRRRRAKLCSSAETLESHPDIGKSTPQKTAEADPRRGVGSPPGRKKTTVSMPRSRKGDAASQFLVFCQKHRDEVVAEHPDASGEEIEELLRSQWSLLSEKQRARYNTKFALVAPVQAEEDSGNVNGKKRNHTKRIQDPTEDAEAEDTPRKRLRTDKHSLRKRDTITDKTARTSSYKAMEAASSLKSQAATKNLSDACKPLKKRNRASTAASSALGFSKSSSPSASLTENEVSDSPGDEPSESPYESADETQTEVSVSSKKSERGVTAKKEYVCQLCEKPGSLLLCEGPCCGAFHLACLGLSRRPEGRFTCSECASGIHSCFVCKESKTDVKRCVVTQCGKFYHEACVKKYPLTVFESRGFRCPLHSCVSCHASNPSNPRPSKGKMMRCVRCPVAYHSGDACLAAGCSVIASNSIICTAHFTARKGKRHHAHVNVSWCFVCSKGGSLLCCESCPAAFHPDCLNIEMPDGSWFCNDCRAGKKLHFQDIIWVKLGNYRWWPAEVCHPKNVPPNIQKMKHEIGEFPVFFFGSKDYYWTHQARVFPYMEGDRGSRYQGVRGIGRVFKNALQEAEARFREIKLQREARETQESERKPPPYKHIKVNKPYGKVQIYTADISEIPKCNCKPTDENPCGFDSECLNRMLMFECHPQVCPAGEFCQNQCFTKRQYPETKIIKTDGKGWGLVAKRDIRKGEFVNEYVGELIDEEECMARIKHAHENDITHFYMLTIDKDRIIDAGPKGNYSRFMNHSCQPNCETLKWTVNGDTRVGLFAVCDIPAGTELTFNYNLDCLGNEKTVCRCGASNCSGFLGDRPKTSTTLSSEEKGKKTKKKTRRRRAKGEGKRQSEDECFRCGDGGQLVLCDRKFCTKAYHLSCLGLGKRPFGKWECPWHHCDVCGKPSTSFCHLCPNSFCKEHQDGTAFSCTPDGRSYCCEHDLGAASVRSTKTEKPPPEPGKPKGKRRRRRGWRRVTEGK

This is a selection; strong and weak results do not stand in their true shares. Some results for these compounds are left out of this collection, so the calls shown say nothing about other tests. Active and inactive are the calls of the source. Cut-off read from the data, not from the text of the source: active = inhibition above about 50%; inactive = the rest.

The target in this test is Histone-lysine N-methyltransferase NSD2 (Homo sapiens) (UniProt O96028). The test is described as follows: blockers of NSD2 lysine methylation activity – biochemical, AlphaScreen, single concentration, set 2, primary screen (AID 743445). The note with it: NSD2 peptide methylation, 120 min, at 12.5 µM, stronger effect = higher value.
For `O=C(NCC1(N2CCCCC2)CCCCC1)c1cc([N+](=O)[O-])ccc1Cl`, the inhibition was inactive: 2.69%.

For `CN1[C@@H]2CC[C@H]1CC(OC(=O)C(O)(c1ccccc1)c1ccccc1)C2` (stereo not given in full), the inhibition is inactive: 0.006%.

As for `CC(C)N1C(=O)CC2(CCN(CCOC(=O)C(O)(c3ccccc3)c3ccccc3)CC2)C1=O`, the inhibition is inactive: -1.37%.

On to `COc1cc(SC)ccc1C(=O)NCC1(N(C)C)CCCCC1`, for which the inhibition is inactive: 2.75%.

For the molecule `CCN(CC)CC(C)C(C)OC(=O)C(O)(c1ccccc1)c1ccccc1` (stereo not given), the inhibition is inactive: 0.765%.

Regarding `Cc1ccc(C(=O)NCC2(N3CCCCC3)CCCCC2)cc1`, the inhibition is inactive: -0.573%.

With `CN(C)c1ccc(C(=O)NCC2(N(C)C)CCCCC2)cc1`, the inhibition was inactive: -1.07%.

In the case of `CN(C)C1CCCC1OC(=O)C(O)(c1ccccc1)c1ccccc1` (stereo not given), the inhibition is inactive: -0.539%.

Take `Cc1ccccc1C(=O)NCC1(N2CCCCC2)CCCCC1`: the inhibition is inactive: 0.178%.

With `O=C(NCC1(N2CCCCC2)CCCCC1)c1cc(F)c(F)cc1Cl`, the inhibition is inactive: 1.43%.

Consider `C=CCN1CCN(CCOC(=O)C(O)(c2ccccc2)c2ccccc2)CC1`, for which the inhibition was inactive: -3.3%.

As to `CCN1CCCC(OC(=O)C2(O)c3ccccc3C=Cc3ccccc32)C1` (stereo not given), the inhibition was inactive: 19%.

Take `Cc1cc(C(=O)NCC2(N3CCCCC3)CCCCC2)ccc1[N+](=O)[O-]`: the inhibition was inactive: -3.72%.

Regarding `COc1ccc(C(=O)NCC2(N(C)C)CCCCC2)cc1`, the inhibition is inactive: -1.55%.

`CN(C)C1(CNC(=O)c2ccc(Br)cc2)CCCCC1`: the inhibition is inactive: 0.421%.

In the case of `COc1cc(C(=O)NCC2(N(C)C)CCCCC2)c([N+](=O)[O-])cc1OC`, the inhibition is inactive: -3.16%.

Take `COc1ccc(Cl)cc1C(=O)NCC1(N(C)C)CCCCC1`: the inhibition was inactive: 0.65%.

As to `COc1cccc(C(=O)NCC2(N3CCCCC3)CCCCC2)c1`, the inhibition was inactive: -1.79%.

Consider `O=C(NCC1(N2CCCCC2)CCCCC1)c1cccc(Cl)c1`, for which the inhibition was inactive: 20.1%.

Turning to `O=C(OC1CN2CCC1CC2)C(CO)(c1ccccc1)c1ccccc1` (stereo not given), the inhibition was inactive: 4.35%.

`COc1ccc(Br)c(C(=O)NCC2(N3CCCCC3)CCCCC2)c1`: the inhibition is inactive: 2.79%.

`C=C(C)C#CC(O)(C(=O)OC1CCN(C)CC1)c1ccccc1` (stereo not given): the inhibition is inactive: 6.62%.

`CN(C)c1cccc(C(=O)NCC2(N(C)C)CCCCC2)c1`: the inhibition is inactive: 1.09%.

Consider `O=C(OCCN1CCCC1)C(O)(c1ccccc1)c1ccccc1`, for which the inhibition was inactive: 1.03%.

Consider `CC(C)Oc1ccc(C(=O)NCC2(N(C)C)CCCCC2)cc1`, for which the inhibition is inactive: -2.45%.
